Read-outs that look alike come from different tables or passages of the source.
Key:
[1] = system: healthy adult male smokers
[2] = system: healthy adult male smokers; details: all dose levels combined; for mean craving: scale of 0 to 10
[3] = per cigarette containing 6 to 11 mg; Henningfield 1995; cited from earlier work

| SMILES | nicotine concentration on storage (pH 3) | Incidence of Adverse Event: Cough ([1]; number of events) | Incidence of Adverse Event: Lightheadedness ([1]; number of events) | Incidence of Adverse Event: Throat irritation ([1]; number of events, inhaled nicotine, 18 healthy adult male smokers) | Subjects Experiencing AE: Lightheadedness ([1]; number of subjects of 18) | Subjects Experiencing AE: Throat irritation ([1]; number of subjects of 18) | Serious AEs ([1]; whole study) | Total adverse events (AEs) recorded ([1]; whole study) | mean craving versus pre-dose baseline ([2]; 4 hours of monitoring) | mean craving ([2]; pre-dose baseline) | mean craving ([2]; within 5 minutes post-dosing) | concentration of nicotine over time (higher pH values) | nicotine the smoker typically absorbs [3] [mg] |
| --- | --- | --- | --- | --- | --- | --- | --- | --- | --- | --- | --- | --- | --- |
| CN1CCCC1c1cccnc1.O=C(O)C(O)C(O)C(=O)O (stereo not shown) [Nicotine Bitartrate, nicotine bitartrate] | in effect unaltered |  |  |  |  |  |  |  |  |  |  |  |  |
| CN1CCCC1c1cccnc1 (stereo not shown) [nicotine, S-3-(1-methyl-2-pyrrolidinyl)pyridine] |  | 20 | 22 | 46 | 11 | 17 | No serious AEs | 119 | remained below pre-dose baseline | 4.9 | 1.4 | decreased over time | 1 to 3 |
